Laboratory results reported in ChEMBL document CHEMBL3227960, “Inhibition of uptake of catecholamines by benzylamine derivatives” (J Med Chem, 1979).

Chains of the proteins cited; added tags and fusions are not shown. Residues count along the entry.
UniProt F1LQW0, 1-617 limits assumed, entry inferred from the test as described: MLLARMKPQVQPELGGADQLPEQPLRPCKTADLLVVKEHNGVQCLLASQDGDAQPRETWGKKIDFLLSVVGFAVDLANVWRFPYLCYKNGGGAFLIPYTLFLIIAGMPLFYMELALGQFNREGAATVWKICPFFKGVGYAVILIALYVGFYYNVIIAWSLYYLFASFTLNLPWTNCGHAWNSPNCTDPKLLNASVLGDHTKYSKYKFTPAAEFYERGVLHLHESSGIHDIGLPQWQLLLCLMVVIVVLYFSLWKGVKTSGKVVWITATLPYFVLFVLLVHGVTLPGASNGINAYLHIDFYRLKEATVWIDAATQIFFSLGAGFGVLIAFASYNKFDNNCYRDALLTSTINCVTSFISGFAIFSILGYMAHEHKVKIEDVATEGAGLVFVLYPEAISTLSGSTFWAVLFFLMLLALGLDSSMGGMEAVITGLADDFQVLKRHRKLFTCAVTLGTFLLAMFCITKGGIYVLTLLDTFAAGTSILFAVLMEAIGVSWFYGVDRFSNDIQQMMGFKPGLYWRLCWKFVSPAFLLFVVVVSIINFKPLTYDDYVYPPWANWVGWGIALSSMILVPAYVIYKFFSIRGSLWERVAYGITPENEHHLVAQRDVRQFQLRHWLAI
UniProt P23977, whole entry: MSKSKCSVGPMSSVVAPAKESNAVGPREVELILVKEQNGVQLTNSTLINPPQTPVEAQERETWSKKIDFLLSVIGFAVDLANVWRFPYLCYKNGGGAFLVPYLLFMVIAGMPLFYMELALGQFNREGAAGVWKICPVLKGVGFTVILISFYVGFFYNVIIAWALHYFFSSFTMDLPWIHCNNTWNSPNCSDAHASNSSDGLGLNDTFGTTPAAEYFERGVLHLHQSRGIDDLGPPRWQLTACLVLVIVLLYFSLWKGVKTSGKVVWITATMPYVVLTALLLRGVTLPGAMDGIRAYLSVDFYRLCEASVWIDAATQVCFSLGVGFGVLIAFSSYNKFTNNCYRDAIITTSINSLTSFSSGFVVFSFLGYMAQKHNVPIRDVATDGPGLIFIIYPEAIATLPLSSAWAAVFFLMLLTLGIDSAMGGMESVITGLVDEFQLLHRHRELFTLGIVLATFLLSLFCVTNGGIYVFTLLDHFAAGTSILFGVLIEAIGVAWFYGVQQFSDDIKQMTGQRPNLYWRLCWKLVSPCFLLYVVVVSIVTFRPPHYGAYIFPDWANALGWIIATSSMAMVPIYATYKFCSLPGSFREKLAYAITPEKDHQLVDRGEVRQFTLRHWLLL
UniProt G1TDF9, 1-617 limits assumed, entry inferred from the test as described: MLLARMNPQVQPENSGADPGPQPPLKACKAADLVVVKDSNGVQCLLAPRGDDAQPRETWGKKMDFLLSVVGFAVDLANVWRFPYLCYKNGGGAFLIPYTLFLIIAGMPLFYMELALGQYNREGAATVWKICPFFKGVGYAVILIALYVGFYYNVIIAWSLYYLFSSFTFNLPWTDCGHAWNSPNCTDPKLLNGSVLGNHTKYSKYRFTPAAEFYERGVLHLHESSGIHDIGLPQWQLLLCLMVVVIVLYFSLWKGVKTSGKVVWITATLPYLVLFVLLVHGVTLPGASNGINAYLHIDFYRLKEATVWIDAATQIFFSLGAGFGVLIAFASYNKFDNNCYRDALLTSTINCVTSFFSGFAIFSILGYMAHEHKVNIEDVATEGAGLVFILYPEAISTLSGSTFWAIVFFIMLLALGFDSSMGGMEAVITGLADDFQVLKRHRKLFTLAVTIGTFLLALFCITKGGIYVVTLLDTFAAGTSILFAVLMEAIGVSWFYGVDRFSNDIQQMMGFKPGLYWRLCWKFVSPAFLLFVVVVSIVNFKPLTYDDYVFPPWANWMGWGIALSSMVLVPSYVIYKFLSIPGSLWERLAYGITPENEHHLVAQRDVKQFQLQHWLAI

Tests used:
Unchecked [1] = biological target: Unchecked (Rattus norvegicus, UniProt F1LQW0); test: Inhibition of [3H]norepinephrine reuptake at NET in Sprague-Dawley rat brain cortical synaptosomes incubated for 5 mins prior to [3H]norepinephrine addition measured after 3 mins by scintillation counting analysis; settings: read-out: I50, strain Sprague-Dawley
[2] = biological target: Sodium-dependent dopamine transporter (Rattus norvegicus, UniProt P23977); test: Inhibition of [3H]dopamine reuptake at DAT in Sprague-Dawley rat brain striatal synaptosomes incubated for 5 mins prior to [3H]dopamine addition measured after 3 mins by scintillation counting analysis; settings: read-out: I50, strain Sprague-Dawley
Unchecked [3] = biological target: Unchecked (Oryctolagus cuniculus, UniProt G1TDF9); test: Inhibition of [3H]norepinephrine reuptake at NET in New Zealand rabbit thoracic aorta incubated for 30 mins prior to [3H]norepinephrine addition measured after 60 mins by scintillation counting analysis; settings: read-out: I50, strain New Zealand

CCN(CCCl)Cc1ccccc1C
IC50 (Unchecked [1]): 80 nM
IC50 [2]: 6090 nM
IC50 (Unchecked [3]): 100 nM
